From PubChem BioAssay AID1631 (National Center for Advancing Translational Sciences (NCATS), 2009) come the findings set out here.

By UniProt entry, the sequences of proteins in these tests, tags left out.
UniProt P14618, whole entry: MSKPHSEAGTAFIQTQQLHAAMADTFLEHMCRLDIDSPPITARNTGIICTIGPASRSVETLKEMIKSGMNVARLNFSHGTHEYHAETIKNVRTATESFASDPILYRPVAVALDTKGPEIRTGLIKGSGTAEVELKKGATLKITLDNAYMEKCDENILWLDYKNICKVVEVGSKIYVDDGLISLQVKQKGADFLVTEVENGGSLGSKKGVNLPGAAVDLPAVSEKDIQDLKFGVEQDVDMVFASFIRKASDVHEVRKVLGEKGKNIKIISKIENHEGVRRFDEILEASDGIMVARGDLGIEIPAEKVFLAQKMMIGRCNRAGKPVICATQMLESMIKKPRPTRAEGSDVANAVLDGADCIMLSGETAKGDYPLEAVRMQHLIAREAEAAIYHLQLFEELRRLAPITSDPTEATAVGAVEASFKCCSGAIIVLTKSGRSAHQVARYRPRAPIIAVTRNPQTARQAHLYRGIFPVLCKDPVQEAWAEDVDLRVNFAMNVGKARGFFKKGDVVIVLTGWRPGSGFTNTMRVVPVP

Only a part is listed here, and it is no random draw. The source made the active and inactive calls. Calls come from the whole dose curve; as a rule, active = well fitted activation curve with a large enough effect; inconclusive = small, poorly fitted or top-dose-only effect; inactive = no such curve, though single readings can be large or run the other way.
% is set by controls: 0 for no effect and ±100 for the full control effect.

This assay concerns the target Pyruvate kinase PKM (Homo sapiens) (UniProt P14618). The assay is described as follows: qHTS Assay for Activators of Human Muscle isoform 2 Pyruvate Kinase. Note: nearly all actives have a fitted effect of over 55% in size. Particulars: purified PKM2, Kinase-Glo ATP luminescence, 0% is enzyme alone, no compound; at 57.5 µM (top of the series). An excerpt: NIH Chemical Genomics Center [NCGC] Matthew G. Vander Heiden, M.D., Ph.D. [Harvard Medical School, 77 Avenue Louis Pasteur, Boston, MA 02115] MLPCN Grant: 1 R03 MH085679-01 NCGC Assay Overview: Human pyruvate kinase muscle 2 (hPK-M2) enzyme was supplied as a highly purified (>95% pure) preparation from Harvard Medical School and assayed for its ability to generate ATP from ADP using phosphoenolpyruvate (PEP) as a substrate. ATP generation was detected in a coupled reaction by luciferase-mediated luminescence, an ATP-dependent process. […] The enzyme was assayed at an intermediate level of activity to screen for both inhibitors and activators.
NCGC Assay Protocol Summary: Three uL of substrate mix (at r.t.) in assay buffer (50 mM Imidazole pH7.2, 50 mM KCl, 7 mM MgCl2, 0.01% Tween 20, 0.05% BSA) was dispensed into white solid bottom 1,536 well microtiter plates so that the final concentrations of substrates in the assay were 0.1 mM ADP and 0.5 mM PEP. 23 nL of compound were delivered by a pin tool and 1 uL of enzyme mix in assay buffer (4 degree Celsius) was added. Plates were incubated at room temperature for 1 hour. Two uL of detection mix (Kinase-Glo, Promega; at 4 degree Celsius protected from light) was added and luminescence read by a ViewLux (Perkin Elmer) at 5 second exposure/plate. Data were normalized to the uninhibited and AC100 inhibition (no enzyme). To monitor activation, the first column contained a titration of the activator, NCGC00031955-01 (16-point 1:2 dilutions in duplicate starting at 57 uM) and the first 16 rows of column 4 contained 57 uM of NCGC00031955-01.
(In general: In qHTS, concentration-response curves come from the screen itself.)
`CC1=NCCc2c1[nH]c1ccccc21.O=[N+]([O-])c1cc([N+](=O)[O-])c(O)c([N+](=O)[O-])c1`: the activation was inactive: 2.02%.
As for `COc1ccccc1OP(C)(=O)Nc1cccc(Br)c1` (configuration not stated), the activation is inactive: 0.136%.
For `CCOC(=O)c1ccc(NP(C)(=O)Oc2cc(C)cc(C)c2)cc1` (configuration not stated) the value was inactive: -2.35%; for `Cc1cc(C)cc(OP(C)(=O)Nc2ccc(C)cc2C)c1` (configuration not stated), inactive: -0.918%.
For `Cc1ccc(C)c(NP(C)(=O)Oc2ccccc2)c1` (configuration not stated), the activation was inactive: -20.2%.
For `Cc1cc(C)cc(OP(C)(=O)Nc2ccccn2)c1` (configuration not stated) the value was inactive: -1.66%; for `CP(=O)(Nc1cccc(Br)c1)Oc1ccccc1` (configuration not stated), inactive: -2.91%; for `O=[N+]([O-])c1cc([N+](=O)[O-])c(-n2nnc3ccccc32)c([N+](=O)[O-])c1`, inactive: -1.57%.
Under `Cc1nc2ccc3ccccc3c2s1.O=[N+]([O-])c1cc([N+](=O)[O-])c(O)c([N+](=O)[O-])c1` stands inactive: -2.76%; under `O=[N+]([O-])c1cc([N+](=O)[O-])c(Nc2nnnn2CCO)c([N+](=O)[O-])c1`, inactive: -9.87%.
In the case of `CN1CCCCC1COC(=O)C1(O)c2ccccc2CCc2ccccc21` (configuration not stated), the activation was inactive: -23.3%.
For `COc1ccccc1OP(C)(=O)Nc1c(C)cccc1C` (configuration not stated) the value was inactive: -0.0669%.
For `CCCOc1ccc(NP(C)(=O)Oc2ccc(Cl)cc2)cc1` (configuration not stated) the value was inactive: -0.634%.
For the molecule `CP(=O)(Nc1ccc(SC(F)(F)F)cc1)Oc1ccccc1` (configuration not stated), the activation was inactive: -13.7%.
Under `CP(=S)(Nn1cnnc1)Oc1ccccc1` (configuration not stated) stands inactive: -1.31%; under `CP(=O)(Nc1ccccc1Br)Oc1ccccc1` (configuration not stated), inactive: -3.72%; under `COc1ccccc1OP(C)(=O)Nc1ccccc1` (configuration not stated), inactive: 3.12%.
As to `CP(=O)(Nc1ccc(SC(F)(F)F)cc1)Oc1ccc(Cl)cc1` (configuration not stated), the activation is inactive: 0.861%.
Under `Cc1cccc(C)c1OP(C)(=O)Nc1ccc(SC(F)(F)F)cc1` (configuration not stated) stands inactive: 2.89%.
For `CP(=O)(Oc1ccccc1)OC(c1ccccc1)C(F)(F)F` (configuration not stated) the value was inactive: 3.82%; for `CP(=O)(NC(=O)Nc1ccccc1)Oc1ccccc1` (configuration not stated), inactive: 1.33%; for `CCc1ccc(OP(C)(=O)N2CCN(c3ccc([N+](=O)[O-])cc3)CC2)cc1` (configuration not stated), inactive: 2.39%.
For `Cc1cc(C)cc(OP(C)(=O)Nc2ccc(SC(F)(F)F)cc2)c1` (configuration not stated) the value was inactive: -4.19%.
With `CCOC(=O)c1ccc(NP(C)(=O)Oc2ccc(OC)cc2)cc1` (configuration not stated), the activation was inactive: -0.551%.
For `CCOP(C)(=S)SCC(=O)NC(C)C(=O)O` (configuration not stated) the value was inactive: -0.747%.
Under `CP(=O)(Nc1ccccn1)Oc1ccc(Cl)cc1` (configuration not stated) stands inactive: 9.37%.
Under `O=[N+]([O-])c1ccc2c(c1)C=Nc1ccccc1O2` stands inactive: 17.6%.
On to `CC(C)(C)c1ccc(OP(C)(=O)Nc2ccc(SC(F)(F)F)cc2)cc1` (configuration not stated), for which the activation is inactive: 1.33%.
Under `Cc1cccc(C)c1OP(C)(N)=O` (configuration not stated) stands inactive: 9.04%; under `COc1ccccc1OP(C)(=O)Nc1ccc(C)cc1` (configuration not stated), inactive: 3.03%; under `Cc1ccc(NP(C)(=O)Oc2ccccc2)c(C)c1` (configuration not stated), inactive: -1.56%.
For `CCOC(=O)c1ccc(NP(C)(=O)Oc2ccccc2)cc1` (configuration not stated) the value was inactive: -3.78%; for `Cc1cc(C)cc(OP(C)(N)=O)c1` (configuration not stated), inactive: 0.137%.
Under `COc1ccccc1OP(C)(=O)Nc1cc(Cl)ccc1C` (configuration not stated) stands inactive: -0.575%; under `COc1ccc(OP(C)(=O)Nc2cccc(F)c2)cc1` (configuration not stated), inactive: 5.34%.
Consider `Cc1cc(C)cc(OP(C)(=O)Nc2cccc(C(F)(F)F)c2)c1` (configuration not stated), for which the activation was inactive: -2.44%.
Under `COc1ccccc1OP(C)(=O)Nc1ccc(C)c(C)c1` (configuration not stated) stands inactive: 2.09%; under `COc1ccc(OP(C)(=O)Nc2ccccc2Br)cc1` (configuration not stated), inactive: 2.74%; under `Cc1nc2ccc3ccccc3c2o1.O=[N+]([O-])c1cc([N+](=O)[O-])c(O)c([N+](=O)[O-])c1`, inactive: 23.3%.
For `CP(=O)(Nc1ccc(Cl)cc1Cl)Oc1ccccc1` (configuration not stated) the value was inactive: -1.91%; for `CP(=O)(OCCOc1ccccc1)OCCOc1ccccc1`, inactive: -39.2%.
Under `COc1ccccc1OP(C)(=O)Nc1ccc(Br)cc1` (configuration not stated) stands inactive: 1.97%; under `COc1ccc(OP(C)(=O)Nc2ccccn2)cc1` (configuration not stated), inactive: -0.307%.
Regarding `CN(C)CCOC(=O)C(O)(c1ccccc1)C1CCCC1` (configuration not stated), the activation was inactive: -1.96%.
Consider `Cc1c(NP(C)(=O)Oc2ccc(C(C)C)cc2)c(=O)n(-c2ccccc2)n1C` (configuration not stated), for which the activation is inactive: 7.32%.
For `O=[N+]([O-])c1cc([N+](=O)[O-])c(Nc2ccccn2)c([N+](=O)[O-])c1` the value was inactive: -0.647%; for `CP(=O)(Nc1ccccn1)Oc1ccccc1` (configuration not stated), inactive: 7.78%; for `COc1ccccc1OP(C)(=O)Nc1ccc(C)cc1C` (configuration not stated), inactive: -2.11%.
For `CCc1ccc(OP(C)(=O)O)cc1` the value was inactive: -3.98%; for `CCN(CC)CC(O)COC(=O)C(O)(c1ccccc1)C1CCCCC1` (configuration not stated), inactive: 3.07%; for `COc1ccc(OP(C)(=O)Nc2ccc(Br)cc2)cc1` (configuration not stated), inactive: -2.91%.
For `O=C(OCCCN1CCCC1)C(O)(c1ccccc1)C1CCCCC1` (configuration not stated) the value was inactive: -17%; for `CP(=O)(Oc1ccccc1)N1CCOC1=O` (configuration not stated), inactive: -2.84%; for `CCc1ccc(OP(C)(=O)Nc2cccnc2)cc1` (configuration not stated), inactive: -3.21%.
`COc1ccccc1OP(C)(=O)Nc1ccccc1Br` (configuration not stated): the activation is inactive: 0.735%.
For `CC(C)(C)c1ccc(OP(C)(=O)O)cc1` the value was inactive: -2.07%; for `CP(=O)(Nc1ccc(Cl)cc1)Oc1ccc(F)cc1` (configuration not stated), inactive: -0.776%; for `CN(C)C(=O)c1c([N+](=O)[O-])cc([N+](=O)[O-])cc1[N+](=O)[O-]`, inactive: -8.94%.
Under `CCOC(=O)c1ccc(NP(C)(=O)Oc2ccc(Cl)cc2)cc1` (configuration not stated) stands inactive: -0.0117%.
For `CP(=O)(OC12CC3CC(CC(C3)C1)C2)OC12CC3CC(CC(C3)C1)C2` the value was inactive: 0.301%.
For the molecule `COc1ccc(OP(C)(=O)Nc2cccc(Br)c2)cc1` (configuration not stated), the activation is inactive: -28.9%.
Under `CN(C)CCOC(=O)C(O)(c1ccccc1)C1CCCCC1` (configuration not stated) stands inactive: 1.35%.
For `COc1ccc(NP(C)(=O)Oc2ccccc2OC)cc1` (configuration not stated) the value was inactive: -0.712%; for `O=[N+]([O-])c1ccc(OP2(=O)COCCO2)cc1` (configuration not stated), inactive: 0.885%.
For `Cc1cc(-c2cccc3ccccc23)c(C)cn1.O=[N+]([O-])c1cc([N+](=O)[O-])c(O)c([N+](=O)[O-])c1` the value was inactive: -1.42%; for `CP(=O)(Nc1ccc(SC(F)(F)F)cc1)Oc1ccc(F)cc1` (configuration not stated), inactive: -2.74%.
Turning to `CCOP(C)(=S)SCC(=O)NC(C)(CC)C(=O)O` (configuration not stated), the activation was inactive: -6.17%.
For `CP(=O)(Nc1ccc2c(c1)OCCO2)Oc1ccccc1` (configuration not stated) the value was inactive: -2.58%; for `Cc1ccccc1NP(C)(=O)Nc1ccccc1C`, inactive: -0.584%.
`CP(=O)(Nc1ccccc1F)Oc1ccccc1` (configuration not stated): the activation was inactive: 3.86%.
As for `CC(C)c1ccc(OP(C)(=O)Nc2ccc(SC(F)(F)F)cc2)cc1` (configuration not stated), the activation was inactive: 3.97%.
`O=C(OCCN1CCN(CCOCc2ccccc2)CC1)C(O)(c1ccccc1)c1ccccc1`: the activation is inactive: -0.392%.
Under `CCOC(=O)c1ccc(NP(C)(=O)Oc2ccc(F)cc2)cc1` (configuration not stated) stands inactive: 6.08%.
Turning to `COc1ccc(OP(C)(=O)Nc2ccc(SC(F)(F)F)cc2)cc1` (configuration not stated), the activation was inactive: 0.0907%.
Under `CCN(CC)CCCOC(=O)C(O)(c1ccccc1)C1CCCCC1` (configuration not stated) stands inactive: 4.11%.
Under `CP(=O)(Nc1ccccc1)Oc1ccc(F)cc1` (configuration not stated) stands inactive: -7.81%; under `CCCCCOc1ccc(NP(C)(=O)Oc2ccc(Cl)cc2Cl)cc1` (configuration not stated), inactive: -4.2%.
